Data on one substance can be found in PMC7472415 (Viruses, 2020).

For the experiment, the target named is YFP-D/NP_TAIL, yellow fluorescent protein fused to the nucleoprotein tail of D/bovine/France/2986/20 (influenza D virus D/bovine/France/2986/2012). Nature of the experiment: fluorescence polarisation. (In general: In fluorescence polarisation assays a small probe gives low polarisation when free and higher when bound to something large.)

Usually Kd stands for a measure of binding affinity in units of concentration. Higher therefore signals weaker binding. “human importin-α1 without its importin-β binding (IBB) domain (residues 69 to 529) (from UniProt P52292 69-529) (domain or fragment)”: the Kd stood at 41 nM. In other words, the double-digit nanomolar range.
